Measurements as given in patent US9303006B2, “Line leaf inula flower lactone A and methods for preparing and using the same for treating myocarditis” (SHANXI ZHENDONG PILOT BIOLOGICAL SCIENCE AND TECHNOLOGY …, priority 2012, dated 2016).
“And” between values parts separate entries of the source, which are not always exact repeats. Identical values can stand only once. “Also recorded” adds a separate entry of the source.

Legend:
Format in all cases: in vivo, Balb/c male mice
[1] = test system: coxsackie B group virus B3 type Nancy strains (CVB3); assay: Life protection (survival time) of mice infected by CVB3; conditions: subcutaneous 15000 units per mouse, four injections
Procedure: (§1) The thin Leaf inula flower lactone A compound from Example 1 was used; a viral strain: coxsackie B group virus B3 type Nancy strains (CVB3) was used at a virus infection dose of 10LD50 virus 0.2 ml through abdominal cavity infection in mice. The animals used were Balb/c male mice, 13 g to 15 g, from Shanghai West S&P-Bick Experimental Animals Co., Ltd. with animal number: qualified SCXX (Shanghai), 2008-0016. The positive control medicine was human recombinant interferon alpha 2 a, YinTeFen, Shenyang Junior Pharmaceutical co., Ltd., Product batch number 20090708.
(§2) Preparation and administration: the line leaf inula flower lactone A compound was weighed, ground, and suspended in 0.5% CMC (carboxymethyl cellulose) mixture at 10 mg/ml solution. Oral administration of the medicine was conducted for once per day, every time at 0.5 ml, for 7 days.
The experimental groups included (1) the viral infection group, each group had 10 mice, were given 0.5% CMC solution and virus. (2) The normal control group, each group had 10 mice, were given 0.5% CMC solution only. […]
Test process was that after virus infection in mice (except the normal control group) for 2 hours, total drug delivery was performed 7 days in a row, observation was conducted until 14 days. The incidence and deaths were recorded every day, and the average survival days prolongation of life were calculated with p value calculation.

[2] = test system: coxsackie B group virus B3 type Nancy strains (CVB3); assay: CVB3-infected mice myocardial virus measured on cell model at 7th day (heart homogenate 1:10, cell lesions); conditions: IFN 15000 units per mouse s.c.
Procedure: as §1, §2
(§3) The experimental groups included (1) the viral infection group, each group had 10 mice, were given 0.5% CMC solution and virus. (2) The normal control group, each group had 10 mice, were given 0.5% CMC solution only. (3) Positive drug control group, each group had 10 mice, subcutaneous injections of recombinant interferon alpha 2 a suspended in 0.5% CMC solution, 15000 units per mouse, once every 2 days injection, a total of four injections. (4) High dose drug treatment group of 100 mg/kg, 10 mice in each group, oral give line leaf inula flower lactone A 50 mg/kg dose in drug treatment group, each group of 10, only oral give leaves Inula flowers lactone A. (5) Drug treatment of low dose group of 10 mg/kg, 10 in each group, oral give leaves Inula flowers lactone A. Observation parameters included life, neutralizing antibodies, virus protection, weight drops, myocardial tissue pathological slices, echocardiogram.
(§4) Another group of 10 mice, with infection, was weighed after 7 days. Four mice were taken to detect cardiac function, and killed and dissected for collecting blood to test neutralizing antibody, heart weighing calculation index, and grinding the heart, with three resistance MEM fluid containing 10%. 1:10 dilution, on the cell model to detect coxsackie virus in mice drop degree (to observe the myocardial cell lesions) separation of virus infection.

[3] = test system: CVB3-Infected Mice; assay: Live body weight in CVB3-infected mice; conditions: IFN 15000 units per mouse s.c.
Procedure: as §1, §2, §3, §4

Substance: IFN: positive control medicine, human recombinant interferon alpha 2 a, YinTeFen [reference compound]
- survival time compared with the virus control group [1]: no significant difference
- Survival time M ([1]; once every 2 days, CVB3-infected mice): 8.4 days
- 1:10 (cell lesions from myocardial homogenate) ([2]; individual mice NO 1-5): ± (plus or minus: 0%); also recorded: + (: + 50%)
- Lesions rate % ([2]; individual mice NO 1-5): 25% and 50% (4×)
- Average disease rate % ([2]; virus control 90%): 45%
- Reduce lesions ([2]; vs virus control): 50.00%
- Live body weight M ± SD ([3]; 4 days): 14.80 ± 1.50
- Live body weight M ± SD ([3]; 8 days): 15.82 ± 0.47
- Live body weight M ± SD ([3]; 14 days): 18.07 ± 0.88
- Live body weight M ± SD ([3]; Before): 14.53 ± 0.59
